Rows were chosen to be rich in hits. Some 2.8% of all compounds tested hit in one or more screens of this group.
Statin myotox sup = suppression of simvastatin myotoxicity | hit rate 0.78% among 330,000 | rescue of ATP level, % at 7.49 µM | C2C12 myotubes + simvastatin, ATP luminescence, 48 h; scaled: DMSO 0, geranylgeraniol control 100;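 active means mean ATP rescue above about 67%, or every replicate alone reaching that limit, limit read from the data, passing the limit was not always enough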;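 further: myotubes were challenged with 10 µM simvastatin during compound exposure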
PglD DTNB = PglD (C. jejuni) enzyme inhibition. purified PglD enzyme, DTNB colorimetric CoA detection. hit rate 0.098% among 360,000. AID 602405. inhibition, % at 12.5 µM; in the data active means inhibition above about 16%, passing the limit was not always enough
esBAF inh = inhibitors of esBAF chromatin remodeling in mouse ES cells | hit rate 2% among 350,000 | Bmi1-luciferase knock-in reporter, 24 h; 100% = twice the neutral-well signal | AID 602393 | reporter increase, % at 12.5 µM; in the data active means activation above about 40%;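 further: 0% = median of the plate's neutral control wells and 100% = double that signal; a rise in the Bmi1 reporter signal indicates esBAF inhibition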
UUG fidelity = yeast start codon fidelity modulation | S. cerevisiae UUG-firefly luciferase reporter, luminescence/redox ratio | activity score, % at 18.7 µM | hit rate 0.13% among 350,000 | AID 602363;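 active means replicate mean at a twofold rise or more, about +100% in these data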;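 further: firefly luciferase made from a UUG start codon reports start codon fidelity; reporter light over untreated wells divided by growth signal over untreated wells; some hits fall short of that in this replicate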
PGC1a acetyl inh = lowers PGC1a acetylation signal in U2OS cells. AlphaScreen anti-acetyl-lysine; with virally co-expressed GCN5 acetyltransferase. inhibition, % at 15.6 µM. hit rate 0.17% among 350,000;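 active means every replicate shows inhibition of at least 40%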;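 further: 0% = neutral control wells and 100% = positive control wells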
E-selectin induc = E-selectin induction on HUVECs; P16581; HUVEC E-selectin immunofluorescence imaging; normalized: neutral wells 0, TNF-alpha wells 100; activation, % at 7.58 µM; hit rate 0.37% among 260,000; AID 686992;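 active means mean E-selectin-positive cell signal at least 10% of the positive control, reached in at least 60% of replicates, without over 20% cell loss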
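Assay system: HUVEC primary endothelial cells. Input: 3,000 HUVEC seeded per well. Doses: one compound dose added by pin transfer. Read-out basis: % PE-positive cells. Benchmarks: TNF-alpha high, DMSO low. Detection: immunofluorescence imaging. Buffer or medium: EGM-2, gelatin.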
Starred values were filed as active, the others as inactive; · = no result.

SMILES | Statin myotox sup | PglD DTNB | esBAF inh | UUG fidelity | PGC1a acetyl inh | E-selectin induc
C[C@@H]1CCCCO[C@@H](CN(C)C(=O)C2CCCCC2)[C@H](C)CN([C@@H](C)CO)C(=O)c2cc(NC(=O)c3ccncc3)ccc2O1 | 94.7* | 3.8 | 27.6 | -1.6 | -13.8 | -0.5
C[C@@H]1CN([C@@H](C)CO)C(=O)c2cc(NC(=O)c3ccncc3)ccc2O[C@@H](C)CCCCO[C@H]1CN(C)C(=O)Nc1cccc2ccccc12 | -21.7 | -2.1 | -6.2 | 12.2 | -19.3 | 0.1
C[C@@H]1CCCCO[C@@H](CN(C)C(=O)C2CCCCC2)[C@@H](C)CN([C@@H](C)CO)C(=O)c2cc(NC(=O)c3ccncc3)ccc2O1 | 29.2 | 0.2 | 15.1 | 4.6 | 0.7 | 1.3
O=S(=O)(NCC[C@H]1CC[C@@H](NS(=O)(=O)c2cccc(F)c2)[C@@H](CO)O1)c1cccc(F)c1 | · | · | · | · | -4.6 | -0.2
C[C@H](CO)N1C[C@H](C)[C@@H](CN(C)Cc2ccc(-c3ccccc3)cc2)Oc2ccc(NC(=O)Nc3cccc4ccccc34)cc2CC1=O | · | · | · | · | · | 0.9
COc1ccc2c3c(n(C)c2c1)[C@H](CO)N(Cc1cccnc1)CC31CN(C(=O)NC(C)C)C1 | · | · | · | · | -4.5 | 0.6
Oc1[nH]c2ccccc2c1N=Nc1ccccc1F | 4.8 | · | 86.2* | · | · | 0.6
Oc1[nH]c2ccccc2c1N=Nc1ccccc1 | · | -1.3 | 52.4* | -14.7 | -6.6 | ·
CC(C)c1ccc(OCC(=O)N2CCCCCC2)c(Br)c1 | -19.0 | · | 51.3* | · | 4.9 | ·
Cc1ccc(S(=O)(=O)Nc2ccc3c(c2)CC(=O)N([C@H](C)CO)C[C@H](C)[C@@H](CN(C)Cc2ccc(C(F)(F)F)cc2)O3)cc1 | 115.4* | · | 8.6 | · | -12.3 | 0.2
C[C@H](CO)N1C[C@H](C)[C@H](CN(C)Cc2ccc(C(F)(F)F)cc2)Oc2ccc(NS(=O)(=O)c3ccc(F)cc3)cc2CC1=O | 0.3 | -1.1 | 13.4 | 0.5 | 7.1 | -0.2
C[C@H](CO)N1C[C@H](C)[C@@H](CN(C)Cc2ccc(C(F)(F)F)cc2)Oc2ccc(NS(=O)(=O)c3ccc(F)cc3)cc2C1=O | 7.2 | 5.1 | -5.2 | -2.5 | 103.3* | 0.3
C[C@H](CO)N1C[C@H](C)[C@@H](CN(C)Cc2ccc(C(F)(F)F)cc2)Oc2ccc(NS(=O)(=O)c3ccc(F)cc3)cc2CC1=O | 82.8* | 0.7 | 4.2 | 16.2 | 5.4 | -0.1
Cc1noc(C)c1NC(=O)Nc1ccc2c(c1)CC(=O)N([C@H](C)CO)C[C@@H](C)[C@H](CN(C)Cc1ccc(Oc3ccccc3)cc1)O2 | 9.8 | 0.7 | 14.5 | -7.5 | 0.3 | -8.7
CCCn1cnc2c(sc3nc4c(cc32)CSC(C)(C)C4)c1=O | 0.7 | 4.7 | 69.7* | -2.0 | -8.6 | ·
COCC(=O)N1CC2(C1)[C@@H](c1ccc(-c3ccc(F)cc3)cc1)[C@@H](CO)N2C(C)=O | · | · | · | · | 2.9 | -0.2
O=C1C=C(c2cccc(Cl)c2)C[C@@H](c2ccc3c(c2)OCO3)C1 | 133.7* | 1.0 | -33.8 | 4.3 | -7.5 | 0.3
O=C1C=C(c2ccccc2)C[C@@H](c2ccc3c(c2)OCO3)C1 | 7.8 | -5.4 | 1.9 | -4.0 | -26.5 | 0.1
COc1cccc(C2=CC(=O)C[C@H](c3ccc4c(c3)OCO4)C2)c1OC | 20.6 | -3.3 | 43.0* | -12.9 | 7.0 | ·
COc1ccc(NC(=O)c2cc(-c3ccccc3Cl)no2)cc1 | · | 7.6 | · | -14.1 | 6.1 | ·
CCc1nnc(NC(=O)c2ccc(-c3ccccc3Cl)o2)s1 | -11.0 | 8.7 | 53.2* | -13.1 | · | ·
O=C(Nc1ccccc1)c1cc(-c2ccccc2Cl)no1 | · | -1.9 | 55.8* | -25.6 | 3.0 | ·
Cc1ccc(-c2ccc(C(=O)Nc3cccc(F)c3)o2)c2ccccc12 | 3.5 | -1.9 | 11.6 | 1.4 | 8.1 | 0.0
CCc1nnc(NC(=O)c2ccc(COc3ccccc3Cl)o2)s1 | 0.7 | 3.0 | -4.6 | -11.5 | · | 0.7
O=C(Nc1cccc(F)c1)c1ccc(-c2ccccc2Cl)o1 | -10.7 | -6.9 | 75.2* | -14.9 | -4.4 | ·

Some of the entries so far, with tabs:
SMILES	Statin myotox sup	PglD DTNB	esBAF inh	UUG fidelity	PGC1a acetyl inh	E-selectin induc
COc1ccc2c3c(n(C)c2c1)[C@H](CO)N(Cc1cccnc1)CC31CN(C(=O)NC(C)C)C1	·	·	·	·	-4.5	0.6
CCc1nnc(NC(=O)c2ccc(-c3ccccc3Cl)o2)s1	-11.0	8.7	53.2*	-13.1	·	·
Cc1noc(C)c1NC(=O)Nc1ccc2c(c1)CC(=O)N([C@H](C)CO)C[C@@H](C)[C@H](CN(C)Cc1ccc(Oc3ccccc3)cc1)O2	9.8	0.7	14.5	-7.5	0.3	-8.7
C[C@@H]1CCCCO[C@@H](CN(C)C(=O)C2CCCCC2)[C@@H](C)CN([C@@H](C)CO)C(=O)c2cc(NC(=O)c3ccncc3)ccc2O1	29.2	0.2	15.1	4.6	0.7	1.3
C[C@H](CO)N1C[C@H](C)[C@@H](CN(C)Cc2ccc(C(F)(F)F)cc2)Oc2ccc(NS(=O)(=O)c3ccc(F)cc3)cc2CC1=O	82.8*	0.7	4.2	16.2	5.4	-0.1

(list continues)
SMILES | Statin myotox sup | PglD DTNB | esBAF inh | UUG fidelity | PGC1a acetyl inh | E-selectin induc
C=CCS/C(=N\n1cnc2ccccc2c1=O)N1CCCCC1 | 21.3 | -3.0 | 52.8* | -13.7 | 5.0 | ·
COCCn1nnnc1C(c1ccc(C)cc1)N1CCN(Cc2ccc3c(c2)OCO3)CC1 (stereo not drawn) | 92.7* | 7.5 | -7.1 | -11.8 | -9.0 | ·
CC(C)CCn1nnnc1C(c1ccccc1)N1CCN(C)CC1 (stereo not drawn) | -15.0 | 5.0 | -11.4 | -21.8 | 6.7 | ·
C=CCN1CCN(C(c2ccccc2)c2nnnn2CCC(C)C)CC1 (stereo not drawn) | 70.9* | -1.2 | -0.4 | -15.7 | -2.3 | ·
COCCn1nnnc1C(c1ccccc1)N1CCN(Cc2ccc3c(c2)OCO3)CC1 (stereo not drawn) | 108.3* | -8.0 | -4.3 | 6.9 | -7.1 | ·
Cc1ccc(C(c2nnnn2Cc2cccs2)N2CCN(Cc3ccc4c(c3)OCO4)CC2)cc1 (stereo not drawn) | · | -2.8 | · | -18.7 | -2.6 | ·
C[C@@H]1CCCCO[C@H](CN(C)C(=O)c2ccccc2)[C@@H](C)CN([C@H](C)CO)C(=O)c2cc(NC(=O)C3CCCCC3)ccc2O1 | -44.3 | -0.3 | -2.1 | 6.4 | 6.8 | 0.3
CNc1cc(CSc2ccc(Cl)cc2)nc(C)n1 | 8.2 | 1.3 | 51.6* | -12.8 | · | ·
Cc1cccc2nc(CSc3ccc(Cl)cc3)cn12 | -11.7 | 3.1 | 75.7* | -12.9 | · | 0.5
CO[C@@H]1CN(C)C(=O)c2cc(NC(=O)Cc3ccccc3)ccc2OC[C@H](C)N(C(=O)c2ccccc2F)C[C@@H]1C | -11.7 | -4.0 | 3.0 | 9.2 | -4.5 | 0.1
CCn1c(CNc2ccc(Cl)cc2)nnc1SCC#N | · | · | · | · | · | 56.5*
CC1CCN(S(=O)(=O)c2ccc([N+](=O)[O-])cc2)CC1 | 14.8 | -2.5 | -5.2 | -2.8 | · | 1.2
CC1CCN(S(=O)(=O)c2ccc(Oc3ccc([N+](=O)[O-])cc3)cc2)CC1 | · | · | · | · | 53.9* | ·
Cn1c(C(=O)NCCc2c[nH]c3ccccc23)cc2sccc21 | -2.1 | 2.2 | 74.3* | -5.0 | 9.8 | 0.3
O=C(NCCc1c[nH]c2ccccc12)c1cc2sccc2n1Cc1ccccc1 | 9.8 | -6.4 | 0.5 | -12.3 | -0.2 | 0.3
O=C(NCCc1c[nH]c2ccccc12)c1cc(Cl)c2c(c1)OCO2 | 26.7 | -6.7 | 46.6* | -12.6 | 16.4 | 0.6
O=C(NCCc1c[nH]c2ccccc12)C(=O)Nc1ccccc1 | -2.2 | -2.5 | 57.6* | -7.4 | -1.7 | ·
O=C(NCCc1c[nH]c2ccccc12)c1ccc2c(c1)OCO2 | 7.5 | 5.6 | -13.8 | -16.4 | · | ·
Cc1ccc(NC(=O)C(=O)NCCc2c[nH]c3ccccc23)cc1C | · | · | · | · | -3.4 | ·
C[C@H]1CN([C@@H](C)CO)C(=O)Cc2cc(NC(=O)Nc3cccc4ccccc34)ccc2O[C@@H]1CN(C)C(=O)NC1CCCCC1 | 8.6 | 1.9 | 0.7 | -8.8 | -3.6 | -0.3

Bioassay records from PubChem BioAssay.
